Sequences of proteins named here, by UniProt entry; tags and fusion partners are left off.
UniProt Q96LB1, whole entry: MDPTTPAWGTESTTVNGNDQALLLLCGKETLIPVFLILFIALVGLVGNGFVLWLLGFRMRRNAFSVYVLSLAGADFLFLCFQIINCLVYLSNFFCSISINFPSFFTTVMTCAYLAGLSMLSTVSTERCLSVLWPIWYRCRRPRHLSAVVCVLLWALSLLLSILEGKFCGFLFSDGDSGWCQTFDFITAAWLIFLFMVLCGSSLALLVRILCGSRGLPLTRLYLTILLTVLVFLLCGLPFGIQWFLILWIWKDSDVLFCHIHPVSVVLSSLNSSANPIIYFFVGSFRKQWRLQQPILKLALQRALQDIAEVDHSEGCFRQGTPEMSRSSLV
UniProt O95342, whole entry: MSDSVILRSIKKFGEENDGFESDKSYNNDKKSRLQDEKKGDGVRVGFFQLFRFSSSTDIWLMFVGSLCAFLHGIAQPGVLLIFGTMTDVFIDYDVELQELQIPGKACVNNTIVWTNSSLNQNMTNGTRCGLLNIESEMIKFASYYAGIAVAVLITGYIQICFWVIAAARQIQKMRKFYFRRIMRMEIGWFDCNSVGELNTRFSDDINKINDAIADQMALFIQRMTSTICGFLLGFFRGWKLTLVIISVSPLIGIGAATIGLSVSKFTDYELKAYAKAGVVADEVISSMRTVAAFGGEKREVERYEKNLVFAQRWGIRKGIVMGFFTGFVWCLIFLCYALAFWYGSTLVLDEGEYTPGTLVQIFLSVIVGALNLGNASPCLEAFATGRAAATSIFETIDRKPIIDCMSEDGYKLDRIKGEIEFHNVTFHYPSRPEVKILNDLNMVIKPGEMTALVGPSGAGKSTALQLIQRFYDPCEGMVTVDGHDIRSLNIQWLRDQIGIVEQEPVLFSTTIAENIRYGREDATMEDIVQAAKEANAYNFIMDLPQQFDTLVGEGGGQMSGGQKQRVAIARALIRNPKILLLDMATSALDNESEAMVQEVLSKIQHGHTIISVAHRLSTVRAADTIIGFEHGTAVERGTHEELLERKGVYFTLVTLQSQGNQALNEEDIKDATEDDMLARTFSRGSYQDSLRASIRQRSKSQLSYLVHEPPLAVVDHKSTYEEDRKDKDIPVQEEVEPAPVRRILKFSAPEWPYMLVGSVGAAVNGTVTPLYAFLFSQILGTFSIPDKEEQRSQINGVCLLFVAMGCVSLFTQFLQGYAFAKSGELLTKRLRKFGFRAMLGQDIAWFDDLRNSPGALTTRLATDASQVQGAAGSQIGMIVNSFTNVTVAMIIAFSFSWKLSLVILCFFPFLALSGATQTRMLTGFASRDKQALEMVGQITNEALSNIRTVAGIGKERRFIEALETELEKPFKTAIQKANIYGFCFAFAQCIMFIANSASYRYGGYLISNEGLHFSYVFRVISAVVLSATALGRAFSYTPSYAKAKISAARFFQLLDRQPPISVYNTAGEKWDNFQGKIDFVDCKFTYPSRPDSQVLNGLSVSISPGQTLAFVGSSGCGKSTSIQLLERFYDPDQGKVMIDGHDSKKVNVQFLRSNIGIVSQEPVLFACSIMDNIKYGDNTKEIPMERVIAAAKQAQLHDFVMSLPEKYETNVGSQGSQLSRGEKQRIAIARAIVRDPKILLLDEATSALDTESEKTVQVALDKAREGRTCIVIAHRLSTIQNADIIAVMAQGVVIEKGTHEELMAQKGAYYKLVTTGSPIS

According to patent EP4821925A2, “MRGPRX2 ANTAGONIST AND USE THEREOF” (dated 2026):

Experiments:
[1] = Pharmacokinetic assay in mice; details: oral intragastric administration, 10 mg/kg, plasma
Method: (§1) Pharmacokinetic assay in mice was performed, and the mice used were male ICR mice weighing 20-25 g and fasted overnight. Three mice were used, and oral intragastric administration was performed at a dose of 10 mg/kg. Blood was collected before administration and at 15 min, 30 min and 1 h, 2 h, 4 h, 8 h, and 24 h after administration. The blood samples were centrifuged at 6800 g at 2-8 °C for 6 min, and plasma was collected and stored at -80 °C. The plasma at each time point was taken, and 3-5 times its amount of an acetonitrile solution containing an internal standard was added for mixing. The mixture was vortexed for 1 min and then centrifuged at 13000 rpm at 4 °C for 10 min. The supernatant was taken, and 3 times its amount of water was added for mixing. An appropriate amount of the resulting mixture was taken for LC-MS/MS analysis. The major pharmacokinetic parameters were analyzed using a non-compartmental model in the WinNonlin 7.0 software. Table 4. Results of pharmacokinetic assay in mice

human MRGPRX2 [2] = target: T1, human MRGPRX2 (Homo sapiens, UniProt Q96LB1); test: MRGPRX2 in vitro IP-1 assay; details: CHO stably-transfected cell line highly expressing human MRGPRX2; agonist Cortistatin-14; IP-1 readout 665 nm/620 nm
Method: The antagonistic effect of the compounds on MRGPRX2 was determined in a CHO stably-transfected cell line that highly expresses human MRGPRX2. The drugs prepared by serial dilution with DMSO were added to a micropore plate, and the stably-transfected cells were treated with trypsin. The cells were collected, counted, and then seeded into the microplate, and the microplate was incubated at 37 °C for 10 min. Cortistatin-14 solution at a specific concentration was added, and the cells were centrifuged and then incubated at 37 °C for 60 min. After the incubation was completed, diluted d2-IP1 and Anti-IP 1-Cryptate were added to each well. The cells were centrifuged and then left to stand at room temperature for 1 h. After the incubation was completed, the fluorescence readings at 665 nm and 620 nm were obtained. The concentration of the compound was plotted on the X-axis, and the fluorescence signal ratio was plotted on the Y-axis. The antagonistic effect (IC50 value) of the compound was calculated using Graphpad software. Table 2: MRGPRX2 IP-1 assay results

[3] = Pharmacokinetic assay in rats; details: oral intragastric administration, 10 mg/kg, plasma
Method: as §1, with “rats” for “mice”, “SD rats” for “ICR mice”, “180-240” for “20-25”, “5.” for “4.”

[4] = Human liver microsome stability assay; details: human liver microsomes, NADPH, 37 °C
Method: The human liver microsome stability assay was performed by co-incubating the compounds with human liver microsomes in vitro. Test compounds were first prepared as 10 mM stock solutions in DMSO solvent, followed by dilution of the compounds to 0.5 mM using acetonitrile. Human liver microsomes (Corning) were diluted with PBS to form a microsome/buffer solution, and 0.5 mM compound was diluted with this solution to form a working solution with a compound concentration of 1.5 µM and a human liver microsome concentration of 0.75 mg/mL. A deep-well plate was used, and 30 µL of the working solution was added to each well. Subsequently, 15 µL of pre-warmed 6 mM NADPH solution was added to start the reaction, and the plate was incubated at 37 °C. Reactions were terminated by adding 135 µL of acetonitrile to the corresponding wells at 0, 5, 15, 30, and 45 min of incubation. After the reaction was terminated with acetonitrile at the last 45 min time point, the deep-well plate was vortexed for 10 min (600 rpm/min) and then centrifuged for 15 min. The supernatant was collected after centrifugation, and purified water was added at a ratio of 1:1 for LC-MS/MS analysis to obtain the ratio of peak area of compound to peak area of internal standard at each time point. The peak area ratios of the compounds at 5, 15, 30, and 45 min were compared with the peak area ratio thereof at 0 min, and the remaining percentage of compounds at each time point was calculated. T1/2 was calculated using Graphpad 5 software. Table 8. Human liver microsome stability data for the compounds

human MRGPRX2 [5] = target: T1, human MRGPRX2; test: MRGPRX2 in vitro calcium flux assay; details: CHO stably-transfected cell line highly expressing human MRGPRX2; agonist C48/80; FLIPR fluorescence
Method: The antagonistic effect of the compounds on MRGPRX2 was determined in a CHO stably-transfected cell line that highly expresses human MRGPRX2. 18 h before the assay, cells were seeded in a black-wall transparent base plate containing DMEM/F12 (1:1) medium at a specific density and incubated at 37 °C with 5% CO2 for 18 h. Then, an appropriate amount of dye solution was added to each well, and the cells were incubated for another 30 min in the incubator at 37 °C in the dark. The cells were further incubated for 10 min at room temperature in the dark. Subsequently, the compounds at different final concentrations were added to each well and equilibrated for 20 min. Finally, a certain amount of C48/80 solution was added to the cells, and fluorescence signals were measured using FLIPR. The concentration of the compound was plotted on the X-axis, and the fluorescence signal value was plotted on the Y-axis. The antagonistic effect (IC50 value) of the compound was calculated using GraphPad Prism 8.0 software. A denotes an IC50 value ≤ 100 nM, B denotes 100 nM < IC50 value ≤ 500 nM, and C denotes an IC50 value greater than 500 nM.

HepG2 cells = test: Hepatotoxicity assay (HepG2 cell viability, CellTiter-Glo); details: inhibition of viability of HepG2 cells, 72 h
Method: The hepatotoxicity assay for the compounds was performed using HepG2 (ATCC, HB-8065) cells. Cell viability was determined using a CellTiter-Glo Luminescent Cell Viability Assay kit (Promega, G7573), and the toxicity of the compounds was characterized by the inhibition of viability of HepG2 cells. HepG2 cells in the logarithmic growth phase were collected, the concentration of the cell suspension was adjusted, and then the cells were plated on a 96-well cell culture plate at 5000 cells/well. The cells were incubated in a cell incubator with 5% CO2 at 37 °C overnight, and the next day, medium change was performed, and compound solutions at different concentrations were added. Meanwhile, a negative control group (cells + DMSO) and a blank control group (medium + DMSO) were set, and the cells were incubated in the cell incubator with 5% CO2 at 37 °C for 72 h. After the treatment was completed, procedures were performed according to the instructions of the kit, and luminescence signal values in different wells were measured using an EnVision plate reader (2104). The inhibition of the viability of HepG2 cells by the compounds at different concentrations was calculated according to the following formula. The concentration of the compound was plotted on the X-axis, and the inhibition rate was plotted on the Y-axis. The toxic effect (IC50 value) of the compound on HepG2 was calculated using GraphPad Prism 8.0 software. Inhibition rate (%) = (1−(signal value of each compound group−signal value of blank control group)/(signal value of negative control group−signal value of blank control group)) × 100% [formula] Table 3: Assay results of toxicity on HepG2

human BSEP = human BSEP (Homo sapiens, UniProt O95342); test: Assay for inhibitory effect on BSEP (vesicle transport); details: vesicle expressing human BSEP, probe substrate transport, 37 °C
Method: The assay for the inhibitory effect on bile salt export pump (BSEP) by the compounds was performed using a vesicle expressing human BSEP (GenoMembrane). The compounds at different concentrations were pre-incubated with the vesicle for 5 min, with a negative control (NC) group and a positive control (PC) group set up. The NC group involved pre-incubation of the vesicle with blank buffer at 37 °C for 5 min, and the PC group involved pre-incubation of the vesicle with a positive inhibitor at 37 °C for 5 min. Subsequently, with the addition ofATP or AMP separately, the mixture was incubated with the probe substrate at 37 °C for 5 min. The assay was terminated using pre-cooled Buffer B1 (10 × Buffer B1 (Stopping and Washing Buffer): 100 mM Hepes-Tris, 1000 mM KNO3, 500 mM Sucrose). The test samples were transferred to a 96-well filter plate, subjected to suction filtration by a vacuum pump, and then washed 5 times with 0.2 mL of pre-cooled Buffer B1. 50 µL of 80% methanol was used to dissolve the vesicles on the filter plate. After collection, the mixture was centrifuged at 2000 rpm for 2 min to collect the filtrate, and the process was repeated once. The two filtrates were combined and mixed well to obtain approximately 100 µL of filtrate. Pre-cooled methanol containing an internal standard was added, and the mixture was centrifuged at 12,000 rpm for 5 min. The supernatant was collected for LC-MS/MS quantification analysis to detect the amount of substrate transported. The concentration of the compound was plotted on the X axis, and the relative activity (% of NC) was plotted on the Y axis. The IC50 value and the inhibition rate of the compound on inhibiting bile salt export pump activity were calculated using Prism software.
The transport rate (activity) and relative activity under different conditions were calculated according to the following formulas: Substrate active transport rate (pmol/min/mg) =; (transport amount of substrate driven by ATP−average transport amount of substrate driven by AMP (pmol))/(incubation time (min) × vesicle protein amount (mg)) [formula] Relative activity (%ofNC) = (transport activity of PC sample or test sample)/(transport activity of NC sample)% [formula] Table 6. Inhibitory effect of test compounds on BSEP

AUC0-t [1]	Cmax [1]	IC50 (human MRGPRX2 [2])	AUC0-t [3]	Cmax [3]	Half-life (T1/2, min) [4]	IC50 (human MRGPRX2 [5])	SMILES	IC50 (HepG2 cells)	IC50 (human BSEP)
45500 ng·h/mL	6624 ng/mL	52 nM	69406 ng·h/mL	7670 ng/mL	560 min	< 100 nM	O=C(N[C@H]1CC[C@@H](Nc2cc(C(F)(F)F)c(=O)n(CC(F)(F)F)n2)CC1)c1cn(CC(F)(F)F)nc1Cl	–	–
–	–	137 nM	–	–	–	100 to 500 nM	CCn1nc(N[C@H]2CC[C@@H](NC(=O)c3cn(CC(F)(F)F)nc3Cl)CC2)cc(C(F)(F)F)c1=O	> 100000 nM	–
–	–	161 nM	–	–	–	100 to 500 nM	Cn1nc(N[C@H]2CC[C@@H](NC(=O)c3cn(CC(F)F)nc3Cl)CC2)cc(C(F)(F)F)c1=O	> 100000 nM	> 100000 nM
–	–	–	–	–	–	100 to 500 nM	Cn1cc(C(=O)N[C@@H]2CCC[C@H](Nc3cc(C(F)(F)F)nc4sc(Cl)cc34)C2)cn1	–	–
–	–	–	–	–	–	–	N#Cc1ccc(NC2CCC(NC(=O)c3cnn(CC(F)(F)F)c3)CC2)cc1C(F)(F)F (stereo not drawn)	–	3800 nM
–	–	86 nM	37434 ng·h/mL	4545 ng/mL	422 min	< 100 nM	Cn1nc(N[C@H]2CC[C@@H](NC(=O)c3cn(CC(F)(F)F)nc3F)CC2)cc(C(F)(F)F)c1=O	–	88000 nM
–	–	–	–	–	–	100 to 500 nM	Cn1cc(C(=O)N[C@@H]2CCC[C@H](Nc3cc(C(F)(F)F)nc4cc(Cl)sc34)C2)cn1	–	–
–	–	224 nM	–	–	–	100 to 500 nM	CC(n1cc(C(=O)N[C@H]2CC[C@@H](Nc3cc(C(F)(F)F)c(=O)n(C)n3)CC2)c(Cl)n1)S(C)(=O)=O (stereo partly drawn)	> 100000 nM	> 100000 nM
–	–	–	–	–	–	–	Cn1cc(C(=O)N[C@H]2CC[C@@H](Nc3cc(C(F)(F)F)c(=O)n(C)n3)CC2)c(Cl)n1	> 100000 nM	–
–	–	364 nM	–	–	–	100 to 500 nM	Cn1nc(N[C@H]2CC[C@@H](NC(=O)c3cn(CC(C)(C)O)nc3Cl)CC2)cc(C(F)(F)F)c1=O	> 100000 nM	> 100000 nM
–	–	–	24330 ng·h/mL	3822 ng/mL	220 min	–	Cn1nc(N[C@H]2CC[C@@H](NC(=O)c3cnn(CC(F)(F)F)c3)CC2)cc(C(F)(F)F)c1=O	> 100000 nM	77000 nM
–	–	–	–	–	–	100 to 500 nM	Cn1cc(C(=O)N[C@@H]2CCC[C@H](Nc3nn(CC(F)(F)F)c(=O)c4ccc(Cl)cc34)C2)cn1	–	65000 nM
29680 ng·h/mL	4045 ng/mL	75 nM	–	–	355 min	< 100 nM	Cn1nc(N[C@H]2CC[C@@H](NC(=O)c3ccc(F)cc3)CC2)cc(C(F)(F)F)c1=O	> 100000 nM	–
–	–	85 nM	–	–	–	< 100 nM	Cn1nc(N[C@H]2CC[C@@H](NC(=O)c3cn(CC(F)(F)F)nc3Cl)CC2)cc(C(F)F)c1=O	–	–
33271 ng·h/mL	7407 ng/mL	10 nM	–	–	–	< 100 nM	O=C(N[C@H]1CC[C@@H](Nc2cc(C(F)(F)F)c(=O)n(C3CC3)n2)CC1)c1cn(CC(F)(F)F)nc1Cl	–	–
